PMC11620503 (Antimicrobial Agents and Chemotherapy, 2024)

Amino acid sequences for entries named in this document (tags omitted). Residues count along the entry.
UniProt Q9F663, 25-293, looked up, species assumed: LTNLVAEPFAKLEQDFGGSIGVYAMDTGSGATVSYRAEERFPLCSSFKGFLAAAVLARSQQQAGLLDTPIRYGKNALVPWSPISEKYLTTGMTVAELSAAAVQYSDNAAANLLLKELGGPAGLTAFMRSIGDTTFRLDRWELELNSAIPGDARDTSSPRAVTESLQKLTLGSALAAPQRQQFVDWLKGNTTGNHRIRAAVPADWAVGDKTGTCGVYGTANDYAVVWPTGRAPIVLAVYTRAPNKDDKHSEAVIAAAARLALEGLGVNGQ
UniProt Q9F663, 25-293 H272Y: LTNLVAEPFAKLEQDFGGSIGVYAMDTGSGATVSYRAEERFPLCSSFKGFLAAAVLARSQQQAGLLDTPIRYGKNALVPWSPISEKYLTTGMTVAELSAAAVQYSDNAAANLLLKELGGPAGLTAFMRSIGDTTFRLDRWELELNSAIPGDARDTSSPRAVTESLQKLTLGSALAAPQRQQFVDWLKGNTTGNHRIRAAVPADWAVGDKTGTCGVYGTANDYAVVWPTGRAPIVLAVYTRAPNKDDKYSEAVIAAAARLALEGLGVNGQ

What was measured:
Experiment in all cases: Ki app determination (Waley's method)
[1] = target: KPC-2 (Klebsiella pneumoniae, UniProt Q9F663)
[2] = target: KPC-38 (Klebsiella pneumoniae, UniProt Q9F663); conditions: read-out: Ki app, means from three independent studies
[3] = target: KPC-3 (Klebsiella pneumoniae, UniProt Q9F663, H272Y)

`O=C(NC1CCNCC1)[C@@H]1CC[C@@H]2CN1C(=O)N2OS(=O)(=O)O` [Relebactam, relebactam] showed a Ki [1] of 5.03 ± 0.734 nM, a Ki [2] of 2.94 ± 0.982 nM and a Ki [3] of 7.67 ± 1.64 nM.
